For this test, the target named is human NPFF1R (Homo sapiens, UniProt Q9GZQ6). As to the kind of experiment: [35S]-GTPγS binding assay. In kind it is biochemical. On the set-up: expressed in transfected cells. How it is done:
Stimulation by endogenous RF-amide peptides or test compounds for [^35S]-GTPγS binding to membranes from CHO cells expressing human NPFF1R or NPFF2R, were examined as reported. 1.6. Glo-Sensor cAMP Assay cAMP accumulation assay was essentially done as described with the following modifications: HEK293 cells stably expressing cAMP Glosensor-20F were used, with or without additional stable expression of each individual opioid receptor or NPFF1R. The cAMP responses were measured in presence of D-luciferin (1 mM).
On the technique in general: GTPγS is a poorly hydrolysed GTP analogue; its binding reports G protein activation.

Amino acid sequences for entries named in this document (tags omitted). A change or cut given only in a name is not applied to a line headed by its entry.
UniProt Q9GZQ6: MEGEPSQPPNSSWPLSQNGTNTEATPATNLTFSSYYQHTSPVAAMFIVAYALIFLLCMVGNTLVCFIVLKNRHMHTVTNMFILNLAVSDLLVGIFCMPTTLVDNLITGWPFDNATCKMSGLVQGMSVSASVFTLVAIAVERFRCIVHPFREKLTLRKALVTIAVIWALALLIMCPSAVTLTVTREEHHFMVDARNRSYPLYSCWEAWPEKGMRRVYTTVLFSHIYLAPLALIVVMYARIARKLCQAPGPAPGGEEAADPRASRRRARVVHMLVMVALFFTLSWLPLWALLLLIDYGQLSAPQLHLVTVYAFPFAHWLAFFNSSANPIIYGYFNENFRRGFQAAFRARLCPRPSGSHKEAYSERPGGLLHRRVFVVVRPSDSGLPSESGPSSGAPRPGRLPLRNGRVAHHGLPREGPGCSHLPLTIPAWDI

This is an account of results in patent US20210002231A1 (Centre National de la Recherche Scientifique, priority 2018, published 2021).

Take `Cc1cc(O)cc(C)c1C[C@H](N)C(=O)N[C@H](CCCNC(=N)N)C(=O)N[C@H]1Cc2ccccc2CN(CCC(=O)N[C@@H](CCCN2CCCCC2)C(=O)N[C@@H](Cc2ccccc2)C(N)=O)C1=O` [KGFF08, H-Dmt-D-Arg-Aba-β-Ala-Apa-Phe-NH2]: the EC50 (commonly the concentration needed to bring the measured effect to its halfway point) is greater than 10 µM.
